Sequences of proteins named here, by UniProt entry; tags and fusion partners are left off.
UniProt Q13936, whole entry: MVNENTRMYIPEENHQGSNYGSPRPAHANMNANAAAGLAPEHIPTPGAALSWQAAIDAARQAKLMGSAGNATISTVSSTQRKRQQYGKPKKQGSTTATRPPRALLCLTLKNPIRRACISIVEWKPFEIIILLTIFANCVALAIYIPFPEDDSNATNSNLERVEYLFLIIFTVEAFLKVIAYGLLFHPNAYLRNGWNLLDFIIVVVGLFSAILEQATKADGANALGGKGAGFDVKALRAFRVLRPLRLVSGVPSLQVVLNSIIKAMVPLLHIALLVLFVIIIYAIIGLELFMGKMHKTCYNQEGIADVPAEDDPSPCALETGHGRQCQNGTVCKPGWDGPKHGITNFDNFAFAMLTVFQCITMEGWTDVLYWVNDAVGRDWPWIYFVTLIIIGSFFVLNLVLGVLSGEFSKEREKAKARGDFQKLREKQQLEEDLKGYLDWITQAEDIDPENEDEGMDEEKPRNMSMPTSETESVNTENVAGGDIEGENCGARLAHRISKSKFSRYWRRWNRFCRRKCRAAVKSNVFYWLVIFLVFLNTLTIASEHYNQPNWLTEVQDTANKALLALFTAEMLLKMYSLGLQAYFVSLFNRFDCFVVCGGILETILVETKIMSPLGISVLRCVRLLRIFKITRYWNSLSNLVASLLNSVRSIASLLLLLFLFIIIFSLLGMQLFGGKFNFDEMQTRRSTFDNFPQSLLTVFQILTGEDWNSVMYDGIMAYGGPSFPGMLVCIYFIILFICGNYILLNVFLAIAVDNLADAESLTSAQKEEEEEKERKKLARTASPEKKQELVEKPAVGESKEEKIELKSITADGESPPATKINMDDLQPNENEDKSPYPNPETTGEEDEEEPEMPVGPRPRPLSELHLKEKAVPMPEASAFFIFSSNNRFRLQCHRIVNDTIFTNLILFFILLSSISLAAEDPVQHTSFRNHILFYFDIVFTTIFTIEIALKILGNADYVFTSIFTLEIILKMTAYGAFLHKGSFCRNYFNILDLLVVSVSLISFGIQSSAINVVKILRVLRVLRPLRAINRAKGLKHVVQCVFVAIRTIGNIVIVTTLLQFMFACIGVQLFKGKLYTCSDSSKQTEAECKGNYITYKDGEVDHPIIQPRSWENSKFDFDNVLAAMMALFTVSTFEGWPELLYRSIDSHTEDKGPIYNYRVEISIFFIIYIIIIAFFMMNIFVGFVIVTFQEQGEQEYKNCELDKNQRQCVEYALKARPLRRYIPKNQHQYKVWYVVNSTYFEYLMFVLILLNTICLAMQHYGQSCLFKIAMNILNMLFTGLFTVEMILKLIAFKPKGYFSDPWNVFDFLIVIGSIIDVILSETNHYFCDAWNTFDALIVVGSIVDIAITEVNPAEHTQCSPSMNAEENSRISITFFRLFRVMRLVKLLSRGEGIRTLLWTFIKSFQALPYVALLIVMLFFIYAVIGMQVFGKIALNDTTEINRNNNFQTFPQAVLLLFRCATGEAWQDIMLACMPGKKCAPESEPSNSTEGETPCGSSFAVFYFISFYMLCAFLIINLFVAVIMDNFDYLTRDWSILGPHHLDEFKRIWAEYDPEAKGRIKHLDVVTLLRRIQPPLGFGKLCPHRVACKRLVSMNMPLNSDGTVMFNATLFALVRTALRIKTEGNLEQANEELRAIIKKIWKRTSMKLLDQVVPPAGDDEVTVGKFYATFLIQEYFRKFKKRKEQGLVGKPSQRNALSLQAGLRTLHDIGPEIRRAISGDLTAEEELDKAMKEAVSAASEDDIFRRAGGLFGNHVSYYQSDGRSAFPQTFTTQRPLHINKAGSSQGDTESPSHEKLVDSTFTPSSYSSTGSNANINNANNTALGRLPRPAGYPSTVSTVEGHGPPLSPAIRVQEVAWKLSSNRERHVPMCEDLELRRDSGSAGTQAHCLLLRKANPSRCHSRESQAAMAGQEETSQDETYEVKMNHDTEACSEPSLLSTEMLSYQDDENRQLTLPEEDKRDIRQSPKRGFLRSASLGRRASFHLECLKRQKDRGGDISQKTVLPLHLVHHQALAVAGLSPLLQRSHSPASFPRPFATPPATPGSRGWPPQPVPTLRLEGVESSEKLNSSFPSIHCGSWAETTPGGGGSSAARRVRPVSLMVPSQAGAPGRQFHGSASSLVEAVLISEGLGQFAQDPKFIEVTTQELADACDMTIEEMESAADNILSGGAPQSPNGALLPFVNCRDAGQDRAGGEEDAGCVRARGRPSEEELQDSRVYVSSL

In patent publication US20250051345A1, “PYRIDINE-3-CARBOXYLATE COMPOUNDS AS CAV1.2 ACTIVATORS” (Novartis AG, priority 2021, published 2025):

Biological target: human Cav1.2 (Homo sapiens (Human), UniProt Q13936)
Assay: Sophion QPatch dose-response assay, whole-cell voltage clamp of barium currents in the Cav1.2-HEK293 (AUX) cell line
Assay type: cell-based
[1] = maximal fold change of peak inward current

SMILES | QPatch Emax [1] | QPatch Emax (fold change of peak inward current at 10 μM)
CCc1c(F)cncc1[C@H]1C(C(=O)OC)=C(C)NC2=C1C(=O)OC2 (single isomer, unassigned) | 2.9 | –
CCc1c(F)cncc1[C@H]1C(C(=O)OC)=C(CF)NC2=C1C(=O)OC2 (single isomer, unassigned) | 1.7 | –
CCc1ccncc1[C@H]1C(C(=O)OC)=C(CF)NC2=C1C(=O)OC2 (single isomer, unassigned) | – | 2.4 at
